Test results taken from US6063370A, “Macromolecular complexes for drug delivery” (The Board of Trustees of the University of Illinois, priority 1998, dated 2000).

Assay: Solubility of insulin and macromolecular insulin complex under various conditions

With insulin the Solubility (pH = 3) was “Soluble”, the Solubility (pH = 7) was “Insoluble” and the Solubility (pH = 7, phosphate buffer) was “Insoluble”.
